In patent publication US6387905B2, “Compounds useful for inhibition of farnesyl protein transferase” (Schering Corporation, priority 1996, dated 2002):
pIC50: −log10 of the molar value.

Sequences of proteins named here, by UniProt entry; tags and fusion partners are left off.
UniProt P49356, whole entry: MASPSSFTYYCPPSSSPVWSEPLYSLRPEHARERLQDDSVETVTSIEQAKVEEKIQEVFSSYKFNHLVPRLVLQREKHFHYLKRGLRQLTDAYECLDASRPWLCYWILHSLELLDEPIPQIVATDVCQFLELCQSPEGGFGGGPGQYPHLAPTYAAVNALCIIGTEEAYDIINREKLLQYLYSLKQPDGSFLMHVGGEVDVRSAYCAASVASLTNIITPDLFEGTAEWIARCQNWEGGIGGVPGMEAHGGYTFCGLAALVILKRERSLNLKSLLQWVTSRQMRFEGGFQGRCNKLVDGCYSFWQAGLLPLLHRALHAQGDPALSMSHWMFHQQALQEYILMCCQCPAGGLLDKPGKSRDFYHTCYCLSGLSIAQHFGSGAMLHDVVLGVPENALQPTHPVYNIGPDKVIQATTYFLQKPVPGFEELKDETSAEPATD

What was measured:
[1] = molecular target: farnesyl protein transferase (FPT), H-ras (Homo sapiens, UniProt P49354+P49356); test: FPT IC50 (H-ras), inhibition of farnesyl protein transferase, in vitro enzyme assay; conditions: read-out: FPT IC50; Table 4
COS Cell = COS Cell IC50 (Cell-Based Assay); conditions: read-out: Cos Cell IC50; Table 5
Experimental: FPT IC50 (inhibition of farnesyl protein transferase, in vitro enzyme assay) and COS Cell IC50 (Cell-Based Assay) were determined following the assay procedures described in WO 95/10516, published Apr. 20, 1995. GGPT IC50 (inhibition of geranylgeranyl protein transferase, in vitro enzyme assay), Cell Mat Assay, and anti-tumor activity (in vivo anti-tumor studies) could be determined by the assay procedures described in WO 95/10516. The disclosure of WO 95/10516 is incorporated herein by reference thereto.

Human tumor cells = test: Soft Agar Assay (anchorage-independent growth); format: cell-based; conditions: read-out: Soft Agar IC50; Table 5
Experimental: Anchorage-independent growth is a characteristic of tumorgenic cell lines. Human tumor cells are suspended in growth medium containing 0.3% agarose and an indicated concentration of a farnesyl transferase inhibitor. The solution is overlayed onto growth medium solidified with 0.6% agarose containing the same concentration of farnesyl transferase inhibitor as the top layer. After the top layer is solidified, plates are incubated for 10-16 days at 37° C. under 5% CO2 to allow colony outgrowth. After incubation, the colonies are stained by overlaying the agar with a solution of MTT (3-[4,5-dimethyl-thiazol-2-yl]-2,5-diphenyltetrazolium bromide, Thiazolyl blue) (1 mg/mL in PBS). Colonies can be counted and the IC50's can be determined.

pIC50 [1] | pIC50 (Human tumor cells) | SMILES | pIC50 (COS Cell)
8.28 | 6.49 | COC(=O)CCCCC(=O)N1CCC(CC(=O)N2CCC([C@H]3c4ncc(Br)cc4CCc4cc(Cl)cc(Br)c43)CC2)CC1 | 8.00
8.16 | 6.66 | COC(=O)CCCCCC(=O)N1CCC(CC(=O)N2CCC([C@H]3c4ncc(Br)cc4CCc4cc(Cl)cc(Br)c43)CC2)CC1 | 8.00
8.28 | – | CNC(=O)C(=O)N1CCC(CC(=O)N2CCC([C@H]3c4ncc(Br)cc4CCc4cc(Cl)cc(Br)c43)CC2)CC1 [Cmpd 64.0-B] | –
